Data set [1] is described as follows: Density of the pure solvent. It is filed as physicochemical.
Data set [2] relates to ethanologen (Ethanol Red). Briefly: Biocompatibility test, ethanologen: glucose consumption in the presence of test solvent. The following applies: text summary of Tables 3-6.

Take `CCCCOP(=O)(OCCCC)OCCCC`: the density in data set [1] (Table 7) and in data set [1] (pure solvent) was 0.979 throughout. Further, the “uptake of glucose with yeast” value in data set [2] is “completely inhibited”.

For the origin of these results see patent US9469584B2, “Method for producing butanol using extractive fermentation” (Butamax Advanced Biofuels LLC, priority 2013, dated 2016).
